For assay [1], the system named is gastric cancer peritoneal metastasis mouse models (GCIY-EGFP cells). Nature of the assay: Ascites accumulation in gastric cancer peritoneal metastasis mouse models, systemic (subcutaneous) administration. The assay is classed as in vivo. The settings on record: subcutaneous (systemic), 5,000 U/mouse/dose, twice a week for 4 weeks; ascites collected 2 weeks after final administration; vs PBS control. The method, then:
Gastric cancer peritoneal metastasis mouse models were produced by transplanting human gastric cancer cells, GCIY-EGFP cells, intraperitoneally into male KSN nude mice in the same manner as in Example 2.
Naturally occurring human interferon-β (FERON®; Toray Industries, Inc.), or PEG-IFN-β or PEG-mIFN-β prepared in Example 1 was administered subcutaneously into the dorsal areas (i.e., via systemic administration) of the gastric cancer peritoneal metastasis mouse models (n=6) in an amount of 5,000 U/mouse/dose. Administration was initiated on the day after transplantation and performed twice a week for 4 weeks. Phosphate buffer (PBS) was administered to the control group in the same manner. Ascites was collected from the gastric cancer peritoneal metastasis mouse models under anesthesia 2 weeks after the final administration and the liquid volume was measured.
The vertical axis represents the amount of ascites (median; mL). On the horizontal axis, “Control (PBS)” represents the result of the group of systemic administration of phosphate buffer (PBS) (control group), “IFN-β” represents the result of the group of systemic administration of naturally occurring human interferon-β, “PEG-IFN-β” represents the result of the group of systemic administration of PEG-IFN-β, and “PEG-mIFN-β” represents the result of the group of systemic administration of PEG-mIFN-β.

Assay [2] has the same test system. Nature of the assay: Ascites accumulation in gastric cancer peritoneal metastasis mouse models, topical (intraperitoneal) administration. Particulars: intraperitoneal (topical), 5,000,000 U/mouse/dose, once a week for 4 weeks; ascites collected a week after final administration. The assay is classed as in vivo. The protocol:
Gastric cancer peritoneal metastasis mouse models were produced, and the effect of PEG-IFN-β to inhibit ascites accumulation by topical administration were evaluated in accordance with the method of Nakanishi et al. (Cancer Science, 2003, Vol. 94, pp. 112-118).
GCIY-EGFP cells prepared by introducing the pEGFP-C1 plasmid (Clontech) into the GCIY human gastric cancer cells (No. RCB0555) obtained from Cell Bank, RIKEN BioResource Center, were cultured and maintained using DMEM medium containing 10% fetal bovine serum in an incubator at 37° C. and 5% CO2. The GCIY-EGFP cells were collected with trypsin/EDTA and washed with a Hank's balanced salt solution (HBSS) to prepare a GCIY-EGFP cell suspension. […]
Naturally occurring human interferon-β (FERON®; Toray Industries, Inc.) or PEG-IFN-β prepared in Example 1 was administered intraperitoneally (i.e., topically) to gastric cancer peritoneal metastasis mouse models (n=8) in amounts of 5,000,000 U/mouse/dose. […] Ascites was collected from the gastric cancer peritoneal metastasis mouse models under anesthesia a week after the final administration, and the liquid volume was measured. […]

Another assay concerns malignant ascites. Particulars: cited from earlier work.

B1: naturally occurring human interferon-β: Naturally occurring human interferon-β (FERON; Toray Industries, Inc.) (protein, UniProt P01574 22-187, looked up)
Interferon beta: MSYNLLGFLQRSSNFQCQKLLWQLNGRLEYCLKDRMNFDIPEEIKQLQQFQKEDAALTIYEMLQNIFAIFRQDSSSTGWNETIVENLLANVYHQINHLKTVLEEKLEKEDFTRGKLMSSLHLKRYYGRILHYLKAKEYSHCAWTIVRVEILRNFYFINRLTGYLRN
For the molecule B1, the “accumulation of ascites (amount of ascites)” value in assay [1] and in assay [2] was “not inhibited” each time.

B2: interferon-β: unmodified interferon-β of literature clinical studies in malignant ascites (protein, listed as Homo sapiens)
chain: MSYNLLGFLQRSSNFQCQKLLWQLNGRLEYCLKDRMNFDIPEEIKQLQQFQKEDAALTIYEMLQNIFAIFRQDSSSTGWNETIVENLLANVYHQINHLKTVLEEKLEKEDFTRGKLMSSLHLKRYYGRILHYLKAKEYSHCAWTIVRVEILRNFYFINRLTGYLRN
In the case of B2, the response rate entry in the assay with malignant ascites (daily and topical administration at a dose of 18,000,000 units, Wakui et al.) is given as “less than 50%”. Moreover, the “therapeutic effects in malignant ascites” value with malignant ascites (topical administration of 6,000,000 units at three times a week) is recorded as “has not yielded any substantial therapeutic effects”.

B3: PEG-IFN-β: one PEG molecule (molecular weight 42,000) covalently bound to the amino group of lysine 134 of recombinant human interferon-β (conjugate, listed as Homo sapiens)
chain: MSYNLLGFLQRSSNFQCQKLLWQLNGRLEYCLKDRMNFDIPEEIKQLQQFQKEDAALTIYEMLQNIFAIFRQDSSSTGWNETIVENLLANVYHQINHLKTVLEEKLEKEDFTRGKLMSSLHLKRYYGRILHYLKAKEYSHCAWTIVRVEILRNFYFINRLTGYLRN
modifications: 42 kDa PEG on Lys134
Turning to B3, the “accumulation of ascites (amount of ascites)” value is “remarkably inhibited” in assay [1] and “inhibited to a normal level” in assay [2].

Source of the values: patent US20160184446A1, “METHOD OF INHIBITING BODY CAVITY FLUID ACCUMULATION” (Toray Industries, Inc., priority 2012, published 2016).
